{"source": "patent US20180136238A1", "about": "(priority 2016, published 2018)", "origin": "cited, not measured here", "conditions": "reference LD50 value"}
{"substance": "arsenocholine", "values": [{"measurement": "LD50 value", "setting": "unit inferred", "value": 6500, "unit": "mg/kg"}]}
{"substance": "arsenous acid", "values": [{"measurement": "LD50 dose", "setting": "species and route not given", "value": 20, "unit": "mg/kg"}]}
